Results taken from ChEMBL document CHEMBL5058645, “Data for DCP probe JNJ-6204” (2022).

Protein sequences, listed by entry. Tags and fused reporters are not part of them. Lines headed by an entry give the natural chain unless they say otherwise; changes in a name come on top.
UniProt P48730: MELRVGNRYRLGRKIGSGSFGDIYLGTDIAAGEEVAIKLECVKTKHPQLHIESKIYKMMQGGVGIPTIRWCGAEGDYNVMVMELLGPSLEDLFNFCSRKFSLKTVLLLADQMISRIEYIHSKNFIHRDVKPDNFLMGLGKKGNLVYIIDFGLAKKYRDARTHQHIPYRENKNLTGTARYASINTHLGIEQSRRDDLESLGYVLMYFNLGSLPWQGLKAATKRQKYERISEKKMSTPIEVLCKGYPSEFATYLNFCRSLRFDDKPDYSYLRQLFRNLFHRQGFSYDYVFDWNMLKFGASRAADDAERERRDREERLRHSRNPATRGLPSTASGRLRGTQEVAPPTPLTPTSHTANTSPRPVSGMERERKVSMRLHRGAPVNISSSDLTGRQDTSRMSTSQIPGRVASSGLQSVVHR

Tests used:
[1] = molecular target: T1, Casein kinase I isoform delta (Homo sapiens, UniProt P48730); test: BRET whole cell binding assay
[2] = molecular target: T1, Casein kinase I isoform delta

SMILES: [2H]C([2H])([2H])C1(C([2H])([2H])[2H])Cn2nc(-c3ccc(F)cn3)c(-c3ccnc4[nH]ncc34)c2CO1
- IC50 [1]: active: 72 nM
- IC50 [2]: active: 542 nM

Calls of active or inactive are those of the source. No cut-off for these calls is given here.
